## Antibody variant affinities, Ab-91 heavy chain, assay 2

The measurements come from Engelhart et al. 2022 (doi:10.1038/s41597-022-01779-4) through the FLAb antibody collection.

The target is the same throughout: PDVDLGDISGINAS, from the HR2 region of SARS-CoV-2 spike.

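AAYL51 was designed without a model: most single CDR substitutions and a random sample of double and triple ones. AlphaSeq pools MATa yeast showing the antibodies with MATalpha yeast showing the peptide. The frequency of each diploid, read from paired DNA barcodes, reflects how well the two displayed proteins bind. Each replicate has its own calibration line, from reference interactions of the BCL2 family. There are three technical replicates.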

Ab-91 is the parent antibody, in scFv form: VL, then the linker GGGGSGGGGSGGGGS, then VH. The light chain is unchanged in all variants.
VL: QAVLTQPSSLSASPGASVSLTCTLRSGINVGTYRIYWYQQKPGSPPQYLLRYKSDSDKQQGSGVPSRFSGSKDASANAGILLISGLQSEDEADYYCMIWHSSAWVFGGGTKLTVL
VH: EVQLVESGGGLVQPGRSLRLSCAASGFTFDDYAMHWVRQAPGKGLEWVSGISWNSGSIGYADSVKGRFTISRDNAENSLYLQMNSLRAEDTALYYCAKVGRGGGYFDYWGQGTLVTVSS

Substitutions are numbered in sequence along the VH above, starting at 1 (not Kabat). This list gathers variants with a substitution at Y60 (VH, numbered from residue 1). The Kd shown is the geometric mean over detected replicates; a lower Kd is a better binder. "nd" marks a missing value. The strain was present, yet no cells mated with the target were sequenced in any replicate, which points to weak or no binding.

For H35T/G50L/Y60A, the assay gave 88 µM (2 of 3 replicates; controls 3 of 9). With I58P/G59E/Y60S the result was nd (0 of 3 replicates; controls 1 of 9). The variant T28M/D31K/Y60H gave 59 nM (3 of 3 replicates; controls 3 of 9). With H35D/I58A/Y60M the result was 94 µM (3 of 3 replicates; controls 6 of 9). The variant Y60P/G100D/G103S showed 33 µM (2 of 3 replicates; controls 4 of 9).

With F29H/Y60L/K65H the result was 210 µM (3 of 3 replicates; controls 5 of 9). The variant Y60A/D62R/S63Q showed 9.4 µM (2 of 3 replicates; controls 4 of 9). The variant D31C/N54M/Y60L gave 200 µM (1 of 3 replicates; controls 0 of 9). The variant D31L/W53C/Y60N showed nd (0 of 3 replicates; controls 0 of 9). For S52H/Y60S/G100N, the assay gave nd (0 of 3 replicates; controls 2 of 9).

For Y60V/K65A, the assay gave 180 nM (3 of 3 replicates; controls 0 of 9). The variant W53C/S55W/Y60C showed 94 µM (2 of 3 replicates; controls 6 of 9). The variant W53A/Y60T gave 52 nM (3 of 3 replicates; controls 0 of 9). With I58T/Y60R/R101I the result was nd (0 of 3 replicates; controls 1 of 9). The variant G50T/G59D/Y60K showed nd (0 of 3 replicates; controls 0 of 9).

The variant D31A/I51M/Y60C gave nd (0 of 3 replicates; controls 0 of 9). With Y60F/G103K/F106V the result was 4.8 µM (2 of 3 replicates; controls 1 of 9). The variant G50K/I58M/Y60P showed 1.7 µM (1 of 3 replicates; controls 4 of 9). With H35G/Y60A/K65W the result was nd (0 of 3 replicates; controls 1 of 9). The variant D30K/Y60C/R101C showed 11 µM (1 of 3 replicates; controls 0 of 9).

With Y60K/G100V/D107P the result was 350 µM (2 of 3 replicates; controls 5 of 9). The variant G26M/Y60W showed nd (0 of 3 replicates; controls 1 of 9). For S55Q/Y60K, the assay gave 590 µM (1 of 3 replicates; controls 3 of 9). With G50S/S55T/Y60G the result was 3.8 µM (1 of 3 replicates; controls 2 of 9). For Y32P/Y60L/K65P, the assay gave 88 µM (1 of 3 replicates; controls 2 of 9).

For Y60I/V64Q/D107K, the assay gave 310 µM (2 of 3 replicates; controls 3 of 9). With A33S/Y60K/D107K the result was nd (0 of 3 replicates; controls 2 of 9). The variant Y60L/K65P/V99Y showed nd (0 of 3 replicates; controls 0 of 9). With I51E/Y60N/K65E the result was 1.5 µM (1 of 3 replicates; controls 0 of 9). With A33H/Y60A the result was 120 µM (3 of 3 replicates; controls 9 of 9).

The variant W53D/I58L/Y60V gave 200 µM (3 of 3 replicates; controls 7 of 9). With Y32N/Y60Q/F106Y the result was 380 nM (1 of 3 replicates; controls 0 of 9). The variant Y32H/W53Y/Y60C gave nd (0 of 3 replicates; controls 0 of 9). The variant N54L/Y60A/G102D showed 31 µM (2 of 3 replicates; controls 3 of 9). The variant G26L/A33F/Y60P showed 75 µM (2 of 3 replicates; controls 7 of 9).

The variant W53G/Y60R gave 130 µM (1 of 3 replicates; controls 2 of 9). For F29G/Y60H/D107S, the assay gave nd (0 of 3 replicates; controls 3 of 9). For Y60Q/R101N/F106W, the assay gave 3.2 µM (1 of 3 replicates; controls 0 of 9). The variant F29H/A33R/Y60K gave 12 µM (1 of 3 replicates; controls 2 of 9). With Y60F/A61F/F106A the result was nd (0 of 3 replicates; controls 1 of 9).

The variant D31H/G59H/Y60S showed 730 µM (2 of 3 replicates; controls 4 of 9). The variant Y60G gave 15 µM (1 of 3 replicates; controls 0 of 9). For I51Y/Y60G, the assay gave nd (0 of 3 replicates; controls 0 of 9).

6 of these entries, quoted again:

| changes | apparent Kd | detected | control signals |
|---|---|---|---|
| W53D/I58L/Y60V | 200 µM | 3/3 | 7/9 |
| Y60F/A61F/F106A | nd | 0/3 | 1/9 |
| G50K/I58M/Y60P | 1.7 µM | 1/3 | 4/9 |
| D31H/G59H/Y60S | 730 µM | 2/3 | 4/9 |
| F29G/Y60H/D107S | nd | 0/3 | 3/9 |
| G50S/S55T/Y60G | 3.8 µM | 1/3 | 2/9 |

As a blank, each scFv also met three strains without target: over library AAYL51, 21% of these pairings were detected, typically at 34 µM and seldom below 1.8 µM. Also given: how often the same scFv was detected with the empty control strains.